Data: publication PMC11969438, “Albumin-targeted oxaliplatin(IV) prodrugs bearing STING agonists” (Inorganic Chemistry Frontiers, 2025)

How the values were obtained:
[1] = system: THP1-Dual, HCT116, HCT116/OxR and CT-26 cells; test: MTT-based cell viability assay, 72 h, statements over all investigated cell lines; set-up: species or system human and murine; conditions: HCT116 and CT-26 cells
Experimental: Cell models were seeded (2–2.5 × 10^3 cells per well) in 96-well plates. After 24 h of recovery, the compounds were applied at the concentrations indicated in triplicate. Cell viability was determined after 72 h of continuous drug incubation using an MTT-based cell viability assay (EZ4U, Biomedica, Vienna, Austria) according to the manufacturer's recommendations. Absorbance was measured at 450 nm (vs. 620 nm as reference) using a multimode microplate reader (Tecan Spark, Zurich, Switzerland). Half-maximal inhibitory concentrations (IC50 values) were derived via interpolation from dose–response curves, modeled with the four-parameter logistic (4PL) nonlinear regression model in GraphPad Prism (La Jolla, CA, USA) from at least three independent experiments. Drug interaction dynamics between oxaliplatin and MSA-2 were established using the ZIP synergy scoring model of SynergyFinder (v3.14).[53]

[2] = Hematological analysis after long-term treatment; conditions: 72 h after the fourth dose
Experimental: Mice were kept in groups of four per cage with sterilized paper-based environmental enrichment and food and water ad libitum, under pathogen-free conditions and a controlled environment with a 12 h light–dark cycle. Syngeneic models of colorectal carcinoma were generated via subcutaneous injection of CT-26 cells (0.5 × 10^6 cells in 50 μL of serum-free RPMI-1640 medium) into the right flank of 8–12 weeks old BALB/c mice. […] All animals were euthanized 24 h after the second dose. […] To determine the anticancer efficacy of the investigated compounds, treatment started 4 d after tumor implantation, when all tumors were measurable (>25 mm^3) using a twice-weekly treatment scheme for two weeks. Tumor size was determined daily via manual caliper measurement. The tumor volume was calculated as tumor volume = (length × diameter × diameter)/2. The overall condition, shape, and activity of the animals were assessed daily. […]

O=C1[O][Pt]2([NH][C@@H]3CCCC[C@H]3[NH]2)[O]C1=O [oxaliplatin]
cytotoxic activity [1]: low μM range
RBC toxicity [2]: Distinct RBC toxicity
